Binding of CDR-mutated scFvs to a peptide of the spike HR2 region

Binding partner: SARS-CoV-2 spike HR2 peptide, sequence PDVDLGDISGINAS.

Parent: Ab-14, a human scFv built as VH, a (GGGGS)3 linker, VL. Only the CDRs of the heavy chain vary.
VH: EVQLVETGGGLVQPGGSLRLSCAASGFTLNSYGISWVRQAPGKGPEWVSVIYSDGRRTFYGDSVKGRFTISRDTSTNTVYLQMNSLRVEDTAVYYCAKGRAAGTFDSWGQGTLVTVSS
VL: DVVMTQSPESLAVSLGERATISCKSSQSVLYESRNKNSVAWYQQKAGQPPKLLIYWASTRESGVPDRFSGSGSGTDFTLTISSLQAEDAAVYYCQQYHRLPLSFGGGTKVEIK

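The parent was found by panning a naive human phage display library on the peptide. The library (AAYL49) carries one to three amino acid substitutions per variant, with no insertions or deletions. In AlphaSeq, yeast of one mating type display the scFv and yeast of the other type display the target. Binding brings cells together so that they mate, and sequencing counts the barcode pairs among the diploids. A regression on co-assayed BCL2-family reference pairs converts the normalised counts of each replicate to an apparent Kd. Mating was done three times.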

Variants are written as CDR1, CDR2 and CDR3 of the heavy chain (limits as in the source). Parent: GFTLNSYGIS, VIYSDGRRTFYGDSVK, GRAAGTFDS.
All variants listed here change G26 of the VH, counted from its first residue.
The Kd shown is the geometric mean over detected replicates; a lower Kd is a better binder.
A pair that was not seen in any replicate is written "nd"; this usually means weak binding, but a binder can also be missed.

- MFTLNSYGIS, VIYSDDRRTFYGDSVR, GRAAGTFDS -> 75 µM (1 of 3 replicates; controls 1 of 9)
- EFTLNSYGIS, PIYSDGRRTFYGDSVM, GRAAGTFDS -> nd (0 of 3 replicates; controls 0 of 9)
- DFTLNSYGIS, VIYSDGRRTFYGDSVK, GRAAGTFDS -> 22 nM (3 of 3 replicates; controls 1 of 9)
- CFTLNPYGIQ, VIYSDGRRTFYGDSVK, GRAAGTFDS -> 1.8 µM (2 of 3 replicates; controls 4 of 9)
- SFTLNSYGIS, VIYSDGRRTFYGDCVK, GRAAGTFIS -> 500 nM (3 of 3 replicates; controls 1 of 9)
- AFTLNSYGIS, VIESDGRRTFYGDSVK, GRAAGTFDS -> nd (0 of 3 replicates; controls 1 of 9)
- EFTLNSYGIS, VYYSDGRRTFYGDNVK, GRAAGTFDS -> nd (0 of 3 replicates; controls 1 of 9)
- LFTLNPYGIS, VIYSDGRRVFYGDSVK, GRAAGTFDS -> nd (0 of 3 replicates; controls 0 of 9)
- DFTLNSYGIS, VIYSDGRRTFYGDSMK, GRAAGTFDS -> 4.9 µM (3 of 3 replicates; controls 1 of 9)
- MFTLNSYKIS, VIYSDGRRTFYGDSVK, GRAAGTFDS -> nd (0 of 3 replicates; controls 1 of 9)
- SFTLNSTGIS, VIYSDGRRTFYGDSVN, GRAAGTFDS -> nd (0 of 3 replicates; controls 0 of 9)
- IFLLNSYGIS, VCYSDGRRTFYGDSVK, GRAAGTFDS -> 49 µM (1 of 3 replicates; controls 5 of 9)
- SFTTNSYGIS, VIDSDGRRTFYGDSVK, GRAAGTFDS -> 4.7 µM (1 of 3 replicates; controls 2 of 9)
- YFTLNSYGIS, VIYSMGRRTFYGDSVK, GRAAGTFDS -> nd (0 of 3 replicates; controls 0 of 9)
- KFTLPSYGIS, VIYSDGVRTFYGDSVK, GRAAGTFDS -> 4.3 µM (2 of 3 replicates; controls 3 of 9)
- AFTLGSYGIS, VIYSDGRRTFYGDSVK, GRAAGTFDS -> 16 nM (3 of 3 replicates; controls 2 of 9)
- PFTLNSYGIS, VIYSDGWRTFYGDSVK, LRAAGTFDS -> nd (0 of 3 replicates; controls 2 of 9)
- LFTLNSYGIS, VGYSDGRRTFVGDSVK, GRAAGTFDS -> 4.3 µM (1 of 3 replicates; controls 1 of 9)
- VFTLNSYGIS, VIYSDWRRTFYGDSVK, GRAAGDFDS -> nd (0 of 3 replicates; controls 0 of 9)
- IFTLNSYGIS, VIYSDGRRTFYGDSVK, GRWAMTFDS -> 94 µM (1 of 3 replicates; controls 2 of 9)
- AFTCNSYGIS, VIKSDGRRTFYGDSVK, GRAAGTFDS -> 1.2 mM (1 of 3 replicates; controls 2 of 9)
- LFALNSYGQS, VIYSDGRRTFYGDSVK, GRAAGTFDS -> 20 µM (1 of 3 replicates; controls 1 of 9)
- SFTLNSYGIS, HIYSDGRRTFYGDGVK, GRAAGTFDS -> nd (0 of 3 replicates; controls 4 of 9)
- EFTLNSYGIS, VIYWDGRRSFYGDSVK, GRAAGTFDS -> 120 nM (3 of 3 replicates; controls 0 of 9)
- EFTLNSYGWM, VIYSDGRRTFYGDSVK, GRAAGTFDS -> 230 µM (2 of 3 replicates; controls 5 of 9)
- CFTLNSYGIS, VIYSWGRRTFYGDSVK, GRANGTFDS -> nd (0 of 3 replicates; controls 4 of 9)
- WFTLNSYGIS, VIYSDGRRTFYGDSVK, GRARGTFDS -> 3.8 µM (3 of 3 replicates; controls 2 of 9)
- FFTLNSYGIS, VIYSDGRRTFYGDSVK, GRAAGTFDS -> 280 nM (3 of 3 replicates; controls 1 of 9)
- QFTLNSYGIS, VIYSDGRRTFGGDSVK, GRAAGTFDS -> 41 µM (1 of 3 replicates; controls 1 of 9)
- EFTLNSYHIS, VIYSDGRRTFYGDKVK, GRAAGTFDS -> nd (0 of 3 replicates; controls 0 of 9)
- IFTLNSYGIS, VIVSDGTRTFYGDSVK, GRAAGTFDS -> nd (0 of 3 replicates; controls 2 of 9)
- RFTLNSYGIS, VIMSDGRRTFYGDSVK, GRAEGTFDS -> 31 µM (1 of 3 replicates; controls 0 of 9)
- DFTLNSYGIS, VIYSDGYRTFYGDSHK, GRAAGTFDS -> nd (0 of 3 replicates; controls 1 of 9)
- AFTLNSYGIS, VIYSDGRRTFYGDSVK, GRAPGTFTS -> 600 nM (2 of 3 replicates; controls 2 of 9)
- RFTLNSYGIS, VIYSDGCRTFYGDSVK, GRAAMTFDS -> nd (0 of 3 replicates; controls 0 of 9)
- AFTLNSYGGS, VIYSDGRRTFYGDSVK, GRAAFTFDS -> nd (0 of 3 replicates; controls 0 of 9)
- VFTLNSYGIS, VIYSDGRRTFYGDSVK, GTAAGTFAS -> nd (0 of 3 replicates; controls 4 of 9)
- AFTLNSYGIS, VIYSDGRRTFAGDSVK, GRAAGTFDG -> nd (0 of 3 replicates; controls 0 of 9)

The first 6 entries again:

CDR-H1	CDR-H2	CDR-H3	Kd	seen in	empty controls
MFTLNSYGIS	VIYSDDRRTFYGDSVR	GRAAGTFDS	75 µM	1/3	1/9
EFTLNSYGIS	PIYSDGRRTFYGDSVM	GRAAGTFDS	nd	0/3	0/9
DFTLNSYGIS	VIYSDGRRTFYGDSVK	GRAAGTFDS	22 nM	3/3	1/9
CFTLNPYGIQ	VIYSDGRRTFYGDSVK	GRAAGTFDS	1.8 µM	2/3	4/9
SFTLNSYGIS	VIYSDGRRTFYGDCVK	GRAAGTFIS	500 nM	3/3	1/9
AFTLNSYGIS	VIESDGRRTFYGDSVK	GRAAGTFDS	nd	0/3	1/9

For reference, the parent read 4.4 nM as the reference entry and 13 µM (one replicate of three) as a member of this library.
Nonspecific signal, from three strains lacking the peptide, appeared in 15% of pairings of library AAYL49, centred on 11 µM (5% of these signals below 680 nM); values are not corrected for it. Also given: how often the same scFv was detected with the empty control strains.

Data: MIT Lincoln Laboratory AlphaSeq set, Engelhart et al. 2022, doi:10.1038/s41597-022-01779-4, as distributed in FLAb.